# Test system: mTOR and related proteins
# Assay: Western blot of phosphorylated mTOR and related proteins in rat brain
# Conditions: 40 mg·kg^−1 intraperitoneal
# [1] = did not reach statistical significance
# [2] = maximum at the 30- and 60-min time-points, p<0.05
compound,measurement,setting,value
"CNC1(c2ccccc2Cl)CCCCC1=O (racemic) [(R,S)-ketamine]",Increase in average expression of p4E-BP1,[1],~ 1.5 fold
same,Increase in average expression of pAkt,[1],~ 1.3 fold
same,Increase in average expression of pERK1/2,[1],~ 2 fold
same,Increase in pmTOR,[2],~ 2.5 fold
same,Increase in pp70S6K,[2],~ 2.5 fold
same,Increase in phosphorylation of mTOR and its downstream targets,"rat pre-frontal cortex, 60-min post-administration, p<0.05",> 2.5 fold
